# Curated experimental data: boiling point values

From the experimental data distributed with OPERA 2.9.

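These are experimental values that the OPERA curators gathered from public databases to train and test their QSAR models. One number stands for a compound and property, with no spread given. Method, purity and exact conditions of the single measurements are not given. Where a salt, mixture or single isomer is drawn, the source does not say that exactly this form was tested. Some entries may be limits or estimates that an upstream database listed as plain numbers.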

The boiling point refers to atmospheric pressure (760 mmHg), by the definition of the set. "–" marks a cell with nothing listed here. "via" names the databases from which the curators took the value.

SMILES,name,bp (°C),via
C=C(C)C(=O)OCCCCCCCC,Octyl methacrylate,239.5,eChemPortal
CCOc1cc(C)ccc1O,"Phenol, 2-ethoxy-4-methyl-",230.3,OCHEM
CC(C)OC(=O)[C@H](C)OC(=O)C(C)(C)C,(S)-1-Isopropoxy-1-oxo-2-propanyl pivalate,207.5,eChemPortal
C[Si](C)(C)C(F)(F)C(F)(F)C(F)(F)C(F)(F)F,Trimethyl(nonafluorobutyl)silane,100,ChemicalBook
CC(=O)OCCC(C)(C)O,1-Acetoxy-3-methyl-3-butanol,206.2,eChemPortal
Cc1c(S(C)(=O)=O)ccc(C(=O)O)c1Cl,2-Chloro-4-(methanesulfonyl)-3-methylbenzoic acid,405,eChemPortal
CCC[C@H]1CC[C@H]([C@H]2CC[C@H](CC)CC2)CC1,–,323.7,eChemPortal
COC1(C(F)(C(F)(F)F)C(F)(F)F)OC(F)(C(F)(C(F)(F)F)C(F)(F)F)C(F)(F)C1(F)F (stereo not drawn),"2-Methoxyperfluoro(2,5-di(propan-2-yl)oxolane)",167.4,eChemPortal
Cn1nc(C(F)F)c(C(=O)F)c1F,–,233,eChemPortal
NCCCCCCCCCCN,"1,10-Decanediamine",272.7,eChemPortal
COc1ccc(/C=C(\C#N)C(=O)OCC(C)(C)C2OCC3(CO2)COC(C(C)(C)COC(=O)/C(C#N)=C/c2ccc(OC)c(OC)c2)OC3)cc1OC (stereo partly drawn),–,380,eChemPortal
CCCCC(CC)CNC(=O)CC(C)CC(C)(C)C (stereo not drawn),"N-(2-Ethylhexyl)-3,5,5-trimethylhexanamide",330,eChemPortal
CCCCC(CC)COC(=O)c1ccc([N+](=O)[O-])cc1 (stereo not drawn),2-Ethylhexyl 4-nitrobenzoate,358.7,eChemPortal
CC=CC(C)(O)CCC=C(C)C (stereo not drawn),"4,8-Dimethylnona-2,7-dien-4-ol",215,eChemPortal
C=CCCCCCCCCCCCCCCCCCCCCCCCC,1-Hexacosene,403.2,OFMPub
C=C[C@H]1CC[C@H]([C@H]2CC[C@H](CCCCC)CC2)CC1,trans-4-pentyl-trans-4'-vinylbicyclohexyl,351.2,eChemPortal
Cc1ccc2c(c1)C(=O)C(C)C2 (stereo not drawn),–,277,eChemPortal
Clc1ccc(Oc2cccc(Cl)c2)cc1,"3,4'-Dichlorodiphenyl ether",318.1,eChemPortal
Cc1c(C)c2c(c(C)c1OC(=O)c1cccnc1)CCC(C)(CCCC(C)CCCC(C)CCCC(C)C)O2 (stereo not drawn),–,395,eChemPortal
CCNC(=O)C(=O)O[C@@H]1C[C@H](C)CC[C@H]1C(C)C,–,255.4,eChemPortal
CC(NCCCCCCNC(C)C(C)(C)C)C(C)(C)C (stereo not drawn),"1,6-Hexanediamine, N1,N6-bis(1,2,2-trimethylpropyl)-",321,eChemPortal
Cn1c(=O)c2c(ncn2C)n(C)c1=O,Caffeine,178,PubChem
CN(C)CCCNCCCN(C)C,"N'-[3-(Dimethylamino)propyl]-N,N-dimethylpropane-1,3-diamine",229.9,eChemPortal
CN(C)CCOCCN(C)CCCN,–,270,eChemPortal
FC(C(F)(F)F)C(F)(F)Oc1cc(Cl)ccc1Cl (stereo not drawn),"1,4-Dichloro-2-(1,1,2,3,3,3-hexafluoropropoxy)benzene",214.3,eChemPortal
CCOC(=O)C(C)(C)c1ccc(C(=O)C2CC2)cc1,Ethyl 2-[4-(cyclopropanecarbonyl)phenyl]-2-methylpropanoate,330,eChemPortal
CCCCCCCCC1OC1CCCCCCCC(=O)OCC(COC(C)=O)OC(C)=O (stereo not drawn),–,294.3,eChemPortal
CC1CCO1 (stereo not drawn),2-Methyloxetane,59,OCHEM
CC(=O)OCC(Br)(Br)Br,"2,2,2-Tribromoethyl acetate",225,OCHEM
CCOC(=O)C1CCC(C)CC1=O (stereo not drawn),Ethyl 4-methyl-2-oxocyclohexane-1-carboxylate,245,eChemPortal
CC(CC(C)(C)C)CP(=O)(O)CC(C)CC(C)(C)C (stereo not drawn),"P,P-Bis(2,4,4-trimethylpentyl)phosphinic acid",341.3,eChemPortal
O=C1CC[C@H]2CO[C@@H]1O2,"(1S,5R)-6,8-Dioxabicyclo[3.2.1]octan-4-one",226.9,eChemPortal
FC(=CC(F)(F)C(F)(F)C(F)(F)F)C(F)(F)C(F)(F)F,"1,1,1,2,2,3,5,5,6,6,7,7,7-Tridecafluoro-3-heptene",69.5,ChemicalBook
CCCCC/C(C=O)=C\c1ccc(C)cc1,(2E)-2-[(4-Methylphenyl)methylene]heptanal,306.8,eChemPortal
CC1C2CC(CC2C2CCC(O)CC2)C1(C)C (stereo not drawn),"Cyclohexanol, 4-(5,5,6-trimethylbicyclo[2.2.1]hept-2-yl)-",240,eChemPortal
FC(F)(Cl)C(F)(Cl)I (stereo not drawn),"1,2-Dichloro-1,1,2-trifluoro-2-iodoethane",99,OCHEM
O=C1CCC=CCCC=CCCC1,"4,8-Cyclododecadien-1-one",252.5,eChemPortal
O=P(c1ccccc1)(c1ccccc1)c1ccccc1,Triphenylphosphine oxide,360,eChemPortal
C=CCOC(=O)[C@@H]1[C@@H](C)CCCC1(C)C,"(1R,6S)-Allyl 2,2,6-trimethylcyclohexanecarboxylate",241.8,eChemPortal
OCC1CC2CC1C1CCCC21 (stereo not drawn),"(Octahydro-1H-4,7-methanoinden-5-yl)methanol",266,eChemPortal

Extract of 6 entries:

{"smiles": "CCCCC(CC)COC(=O)c1ccc([N+](=O)[O-])cc1", "stereo": "stereo not drawn", "name": "2-Ethylhexyl 4-nitrobenzoate", "bp (°C)": "358.7", "via": "eChemPortal"}
{"smiles": "C=C[C@H]1CC[C@H]([C@H]2CC[C@H](CCCCC)CC2)CC1", "name": "trans-4-pentyl-trans-4'-vinylbicyclohexyl", "bp (°C)": "351.2", "via": "eChemPortal"}
{"smiles": "CCCCCCCCC1OC1CCCCCCCC(=O)OCC(COC(C)=O)OC(C)=O", "stereo": "stereo not drawn", "bp (°C)": "294.3", "via": "eChemPortal"}
{"smiles": "COC1(C(F)(C(F)(F)F)C(F)(F)F)OC(F)(C(F)(C(F)(F)F)C(F)(F)F)C(F)(F)C1(F)F", "stereo": "stereo not drawn", "name": "2-Methoxyperfluoro(2,5-di(propan-2-yl)oxolane)", "bp (°C)": "167.4", "via": "eChemPortal"}
{"smiles": "C=C(C)C(=O)OCCCCCCCC", "name": "Octyl methacrylate", "bp (°C)": "239.5", "via": "eChemPortal"}
{"smiles": "C=CCCCCCCCCCCCCCCCCCCCCCCCC", "name": "1-Hexacosene", "bp (°C)": "403.2", "via": "OFMPub"}